The entries are a selection whose mix differs from that of the whole data set. Records with an inconclusive call do not appear. The source made the active and inactive calls. Calls come from the whole dose curve; as a rule, active = well fitted cell-killing curve with a large enough effect; inconclusive = small, poorly fitted or top-dose-only effect, or effect the other way; inactive = no such curve, though single readings can be large or run the other way.
Experiments:
[1] = Quantitative High-Throughput drug screen in 47 multiple myeloma cell lines against the NCATS MIPE library collection: OCIMY1_PLB cell viability assay (AID 1918979); conditions: OCI-MY1 myeloma viability, CellTiter-Glo ATP, 48 h; at 45.8 µM (top of the series);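 note: 100% = DMSO-only wells and 0% = cell-free media-only wells; nearly all actives have a fitted effect of over 35% in size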
In short: (§1)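 Plated at 500 cells per well, myeloma lines received MIPE 4.0 compounds by pin tool. Following 48 h culture at 37 °C, CellTiter-Glo luminescence gave viability relative to DMSO and media-only controls.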

[2] = Quantitative High-Throughput drug screen in 47 multiple myeloma cell lines against the NCATS MIPE library collection: MM1S_ATCC cell viability assay (AID 1918980); conditions: MM1S myeloma viability, CellTiter-Glo ATP luminescence, 48 h; at 45.8 µM (top of the series);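 note: 100% = wells with DMSO only and 0% = wells with media only; nearly all actives have a fitted effect of over 45% in size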
Source text: (§2) PI: Beverly A. Mock Ph.D.
(§3) Laboratory of Cancer Biology and Genetics,
(§4) Center for Cancer Research, National Cancer Institute,
(§5) National Institute of Health, Bethesda, Maryland
(§6) Drug resistance and disease progression are common in multiple myeloma (MM) patients, underscoring the need for new therapeutic combinations. […] We hypothesized that effective combinations would reduce MYC expression and enhance p16 activity. […] These preclinical data identify potentially useful drug combinations for evaluation in drug-resistant MM and reveal potential mechanisms of combined drug sensitivity.
(§7) Described herein is the primary MIPE qHTS used to cherrypick compounds. Validated compounds were then further tested for potential synergistic activiy.
[1] […]
(§8) 5; Detector; 425V; Luminescence; Viewlux PerkinElmer. […]
(§9) 1. […] Briefly, the corresponding myeloma cell lines were screened in 1,536-well plates with 500 cells, 5-uL per well for inhibition of cell viability (assessed by measuring ATP levels with CellTiterGlo). […]
(§10) 5. Signal was measured as median relative luminescence units on a ViewLux (PerkinElmer) multiplate reader. […]

[3] = Quantitative High-Throughput drug screen in 47 multiple myeloma cell lines against the NCATS MIPE library collection: MM1R_ATCC cell viability assay (AID 1918981); conditions: MM1R multiple myeloma cells, CellTiter-Glo viability, 48 h; at 45.8 µM (top of the series); note: nearly all actives have a fitted effect of over 35% in size
Source text: as §2, §3, §4, §5, §6, §7
[1] […]
as §8, §9, §10

[4] = Quantitative High-Throughput drug screen in 47 multiple myeloma cell lines against the NCATS MIPE library collection: LP1_DSMZ cell viability assay (AID 1918982); conditions: LP1 myeloma viability, CellTiter-Glo ATP luminescence, 48 h; at 45.8 µM (top of the series); note: nearly all actives have a fitted effect of over 35% in size
Source text: as §2, §3, §4, §5, §6, §7
[1] […]
as §8, §9, §10

[5] = Quantitative High-Throughput drug screen in 47 multiple myeloma cell lines against the NCATS MIPE library collection: KMS34_JCRB cell viability assay (AID 1918985); conditions: KMS34 myeloma viability, CellTiter-Glo ATP luminescence, 48 h; at 45.8 µM (top of the series);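 note: 100% = DMSO-only wells and 0% = media-only wells; nearly all actives have a fitted effect of over 40% in size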
Source text: as §2, §3, §4, §5, §6, §7
[1] […]
as §8, §9, §10

[6] = Quantitative High-Throughput drug screen in 47 multiple myeloma cell lines against the NCATS MIPE library collection: OCIMY7_PLB cell viability assay (AID 1918987); conditions: OCI-MY7 myeloma viability, CellTiter-Glo ATP, 48 h; at 45.8 µM (top of the series); note: nearly all actives have a fitted effect of over 65% in size
In short: as §1

[7] = Quantitative High-Throughput drug screen in 47 multiple myeloma cell lines against the NCATS MIPE library collection: OCIMY5_PLB cell viability assay (AID 1918988); conditions: OCI-MY5 myeloma viability, ATP luminescence, 48 h; at 45.8 µM (top of the series);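 note: 100% = DMSO-treated wells and 0% = wells with media alone; nearly all actives have a fitted effect of over 65% in size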
In short: as §1

[8] = Quantitative High-Throughput drug screen in 47 multiple myeloma cell lines against the NCATS MIPE library collection: OPM1_PLB cell viability assay (AID 1918989); conditions: CellTiter-Glo, 48 h; at 45.8 µM (top of the series);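 note: 100% = DMSO-only wells and 0% = media-only wells; nearly all actives have a fitted effect of over 40% in size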
In short: as §1

[9] = Quantitative High-Throughput drug screen in 47 multiple myeloma cell lines against the NCATS MIPE library collection: SKMM1_PLB cell viability assay (AID 1919863); conditions: SKMM1 myeloma viability, CellTiter-Glo ATP, 48 h; hits give low values; note: nearly all actives have a fitted effect of over 35% in size
Source text: as §2, §3, §4, §5, §6, §7
[1] […]
as §8, §9, §10

[10] = Quantitative High-Throughput drug screen in 47 multiple myeloma cell lines against the NCATS MIPE library collection: U266_ATCC cell viability assay (AID 1919864); conditions: U266 myeloma viability, CellTiter-Glo ATP luminescence, 48 h; at 45.8 µM (top of the series)
Source text: as §2, §3, §4, §5, §6, §7
[1] […]
as §8, §9, §10

CCOC(=O)C(=O)CBr
inactive: viability [1] 130% | viability (% of control) [2] 130% | viability (% of control) [3] 99.5% | viability (% of control) [4] 98.7% | viability, percent of control [5] 113% | viability (% of DMSO) [6] 97.3% | viability, % of control [7] 150% | viability (% of control) [8] 103% | viability [9] 127% | viability (% of DMSO control) [10] 122%

— PubChem BioAssay (NCATS)
